# Test system: L145K mutated biotinylated and Myc tagged human CD28 stalk region dimeric peptide
# Chains of the proteins cited; added tags and fusions are not shown. Chains listed by the source or under a name are the forms on record and can include a tag or linker.
# L145K mutated biotinylated and Myc tagged human CD28 stalk region dimeric peptide, one chain, as listed by the source L145K: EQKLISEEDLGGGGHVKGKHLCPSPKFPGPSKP
substance,measurement,value
Recombinant human MMP-13,"percent of peptide cleaved (intact peptide by anti-Myc ELISA, 25 and 50 ng enzyme, 5 hours)",the mutated peptide was not substantially cleaved (<5%) by either MMP-2 or MMP-13

# From patent US20260209355
